Literature values as cited in US20150126551A1, “USE OF A […] HALIDE DERIVATIVE IN THE TREATMENT OF NEURODEGENERATIVE DISEASES” (Orphazyme ApS, priority 2003, published 2015).

Test system: patients suffering from ALS
Conditions: Miller et al. 2002, Cochrane review; cited from earlier work

For Nc1nc2ccc(OC(F)(F)F)cc2s1 [Riluzole], the extension of survival is given as “approximately 3 months”.
